22 compounds from patent US12398154B2, “Azaquinazoline pan-KRas inhibitors” (Mirati Therapeutics, Inc., priority 2020, dated 2025) can be followed below.

Protein sequences, listed by entry. Tags and fused reporters are not part of them. Lines headed by an entry give the natural chain unless they say otherwise; changes in a name come on top.
UniProt P01116: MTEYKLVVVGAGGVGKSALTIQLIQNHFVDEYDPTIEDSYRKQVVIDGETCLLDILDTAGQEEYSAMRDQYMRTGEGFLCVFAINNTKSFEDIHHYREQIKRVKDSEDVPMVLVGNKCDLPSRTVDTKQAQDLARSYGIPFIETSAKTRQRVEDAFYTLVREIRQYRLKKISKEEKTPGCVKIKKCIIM

The IC50 is the midpoint of a concentration-inhibition curve. Higher therefore signals weaker potency.

For experiment [1], the target named is T1, KRas G13D (Homo sapiens, UniProt P01116, G13D).
T1 construct: Biotinylated KRas (corresponding to amino acids 1-169, produced at Accelegan Inc.); biotin (biotinylated); purchased Accelegan Inc
The experiment is described as follows: KRas binding assay (TR-FRET displacement). The following applies: TR-FRET tracer displacement, 60-minute incubation at room temperature. (In general: TR-FRET usually uses a lanthanide donor and a delayed reading to cut background.)

Experiment [2] addresses T2, KRas Q61H (Homo sapiens, UniProt P01116, Q61H).
T2 construct: Biotinylated KRas (corresponding to amino acids 1-169, produced at Accelegan Inc.); biotin (biotinylated); purchased Accelegan Inc
The experiment is described as follows: KRas binding assay (TR-FRET displacement). The following applies: TR-FRET tracer displacement, 60-minute incubation at room temperature.

On to `O=C1C[C@@]2(CCN(c3nc(OCC45CCCN4CCC5)nc4c(F)c(-c5cccc6cccc(F)c56)ncc34)C2)CN1` [Example 280, (S)-7-(8-fluoro-7-(8-fluoronaphthalen-1-yl)-2-((hexahydro-1H-pyrrolizin-7a-yl)methoxy)pyrido[4,3-d]pyrimidin-4-yl)-2,7-diazaspiro[4.4]nonan-3-one], for which the IC50 in experiment [1] and in experiment [2] was at least 100000 nM throughout.
Consider `O=C1NC(=O)C2(CCCN(c3nc(OCC45CCCN4CCC5)nc4c(F)c(-c5cccc6cccc(C(F)F)c56)ncc34)C2)N1` (centres unmarked) [Example 464, 7-(7-(8-(difluoromethyl)naphthalen-1-yl)-8-fluoro-2-((hexahydro-1H-pyrrolizin-7a-yl)methoxy)pyrido[4,3-d]pyrimidin-4-yl)-1,3,7-triazaspiro[4.5]decane-2,4-dione], for which the half-inhibitory concentration (IC50) in experiment [1] worked out at 506 nM; in experiment [2] it was 717 nM.
On the same counts, the results for `Cc1ccc2[nH]ncc2c1-c1ncc2c(N3CCCC(C)(O)C3)nc(OCC34CCCN3CCC4)nc2c1F` (centres unmarked) [Example 430, 1-(8-fluoro-2-((hexahydro-1H-pyrrolizin-7a-yl)methoxy)-7-(5-methyl-1H-indazol-4-yl)pyrido[4,3-d]pyrimidin-4-yl)-3-methylpiperidin-3-ol] are 5490 nM and 8860 nM.
`N#Cc1cccc2cccc(-c3ncc4c(N5CCCC6(C5)NC(=O)NC6=O)nc(OCC56CCCN5CCC6)nc4c3F)c12` (centres unmarked) [Example 449, 8-(4-(2,4-dioxo-1,3,7-triazaspiro[4.5]decan-7-yl)-8-fluoro-2-((hexahydro-1H-pyrrolizin-7a-yl)methoxy)pyrido[4,3-d]pyrimidin-7-yl)-1-naphthonitrile]: the IC50 in experiment [1] came to 5530 nM; in experiment [2], 6400 nM.
The matching figures for `CCc1c(F)ccc2cc(O)cc(-c3ncc4c(N5CCCCCCC5)nc(OC[C@@]56CCCN5C[C@H](F)C6)nc4c3F)c12` [Example 325, 4-(4-(azocan-1-yl)-8-fluoro-2-(((2R,7aS)-2-fluorohexahydro-1H-pyrrolizin-7a-yl)methoxy)pyrido[4,3-d]pyrimidin-7-yl)-5-ethyl-6-fluoronaphthalen-2-ol]: at most 2 nM and at most 2 nM.
On to `CCc1c(F)ccc2cc(O)cc(-c3ncc4c(N5CCCn6nc(C(=O)N(C)C)cc6C5)nc(OC[C@@]56CCCN5C[C@H](F)C6)nc4c3F)c12` [Example 326, 5-(7-(8-ethyl-7-fluoro-3-hydroxynaphthalen-1-yl)-8-fluoro-2-(((2R,7aS)-2-fluorohexahydro-1H-pyrrolizin-7a-yl)methoxy)pyrido[4,3-d]pyrimidin-4-yl)-N,N-dimethyl-5,6,7,8-tetrahydro-4H-pyrazolo[1,5-a][1,4]diazepine-2-carboxamide], for which the IC50 in experiment [1] and in experiment [2] was at most 2 nM each time.
On to `O=C1CC2(CCCN(c3nc(OCC45CCCN4CCC5)nc4c(F)c(-c5cccc6cccc(C(F)(F)F)c56)ncc34)C2)N1` (centres unmarked) [Example 467, 6-(8-fluoro-2-((hexahydro-1H-pyrrolizin-7a-yl)methoxy)-7-(8-(trifluoromethyl)naphthalen-1-yl)pyrido[4,3-d]pyrimidin-4-yl)-1,6-diazaspiro[3.5]nonan-2-one], for which the figures for the IC50 in experiment [1] and in experiment [2] were 1800 nM and 1650 nM, respectively.
Regarding `CCc1cccc2cccc(-c3ncc4c(N5CCCC(CS(N)(=O)=O)C5)nc(OCC56CCCN5CCC6)nc4c3F)c12` (centres unmarked) [Example 285, 1-(1-(7-(8-ethylnaphthalen-1-yl)-8-fluoro-2-((tetrahydro-1H-pyrrolizin-7a(5H)-yl)methoxy)pyrido[4,3-d]pyrimidin-4-yl)piperidin-3-yl)methanesulfonamide], the IC50 in experiment [1] worked out at 447 nM; in experiment [2], 293 nM.
On the same counts, the results for `OCC1CN(c2nc(OCC34CCCN3CCC4)nc3c(F)c(-c4cccc5cccc(F)c45)ncc23)CCCO1` (centres unmarked) [Example 269, (4-(8-fluoro-7-(8-fluoronaphthalen-1-yl)-2-((hexahydro-1H-pyrrolizin-7a-yl)methoxy)pyrido[4,3-d]pyrimidin-4-yl)-1,4-oxazepan-2-yl)methanol] are 1490 nM and 1830 nM.
The matching figures for `CCc1cccc2cccc(-c3ncc4c(N5CC6CC(O)C(C6)C5)nc(OCC56CCCN5CCC6)nc4c3F)c12` (centres unmarked) [Example 290, 3-(7-(8-ethylnaphthalen-1-yl)-8-fluoro-2-((hexahydro-1H-pyrrolizin-7a-yl)methoxy)pyrido[4,3-d]pyrimidin-4-yl)-3-azabicyclo[3,2,1]octan-6-ol]: 236 nM and 290 nM.
Turning to `Cc1cccc2cccc(-c3ncc4c(N5CCCC6(C5)NC(=O)NC6=O)nc(OCC56CCCN5CCC6)nc4c3F)c12` (centres unmarked) [Example 448, 7-(8-fluoro-2-((hexahydro-1H-pyrrolizin-7a-yl)methoxy)-7-(8-methylnaphthalen-1-yl)pyrido[4,3-d]pyrimidin-4-yl)-1,3,7-triazaspiro[4.5]decane-2,4-dione], the IC50 is 62 nM in experiment [1] and 60 nM in experiment [2].
The matching figures for `O=C1CC2(CCCN(c3nc(OCC45CCCN4CCC5)nc4c(F)c(-c5cccc6cccc(CCF)c56)ncc34)C2)N1` (centres unmarked) [Example 470, 6-(8-fluoro-7-(8-(2-fluoroethyl)naphthalen-1-yl)-2-((hexahydro-1H-pyrrolizin-7a-yl)methoxy)pyrido[4,3-d]pyrimidin-4-yl)-1,6-diazaspiro[3.5]nonan-2-one]: 565 nM and 663 nM.
The matching figures for `CCc1c(F)ccc2cc(O)cc(-c3ncc4c(N5CCCC6(CC(=O)NC6=O)C5)nc(OC[C@@]56CCCN5C[C@H](F)C6)nc4c3F)c12` (stereo partly drawn) [Example 318, 7-(7-(8-ethyl-7-fluoro-3-hydroxynaphthalen-1-yl)-8-fluoro-2-(((2R,7aS)-2-fluorohexahydro-1H-pyrrolizin-7a-yl)methoxy)pyrido[4,3-d]pyrimidin-4-yl)-2,7-diazaspiro[4.5]decane-1,3-dione]: at most 2 nM and at most 2 nM.
In the case of `Fc1c(-c2cccc3cccc(Cl)c23)ncc2c(NCCCOC(F)F)nc(OCC34CCCN3CCC4)nc12` [Example 474, 7-(8-chloronaphthalen-1-yl)-N-(3-(difluoromethoxy)propyl)-8-fluoro-2-((tetrahydro-1H-pyrrolizin-7a(5H)-yl)methoxy)pyrido[4,3-d]pyrimidin-4-amine], the IC50 in experiment [1] is 5970 nM; in experiment [2], 6350 nM.
On to `CCc1c(F)ccc2cc(O)cc(-c3ncc4c(N5C[C@@H]6C[C@H](C5)[C@H](O)C6)nc(OCC5(CN6CCCC6)CC5)nc4c3F)c12` [Example 320, (1R,5R,6R)-3-(7-(8-ethyl-7-fluoro-3-hydroxynaphthalen-1-yl)-8-fluoro-2-((1-(pyrrolidin-1-ylmethyl)cyclopropyl)methoxy)pyrido[4,3-d]pyrimidin-4-yl)-3-azabicyclo[3,2,1]octan-6-ol], for which the IC50 in experiment [1] and in experiment [2] was at most 2 nM in each case.
Take `O=C1NCC2(CCCN(c3nc(OCC45CCCN4CCC5)nc4c(F)c(-c5cccc6cccc(CO)c56)ncc34)C2)N1` (centres unmarked) [Example 453, 7-(8-fluoro-2-((hexahydro-1H-pyrrolizin-7a-yl)methoxy)-7-(8-(hydroxymethyl)naphthalen-1-yl)pyrido[4,3-d]pyrimidin-4-yl)-1,3,7-triazaspiro[4.5]decan-2-one]: the IC50 in experiment [1] came out at 503 nM; in experiment [2] it was 679 nM.
For the compound `C#Cc1c(F)ccc2cc(O)cc(-c3ncc4c(N5CC6C(=O)NC(=O)C6C5)nc(OC[C@@]56CCCN5C[C@H](F)C6)nc4c3F)c12` (stereo partly drawn) [Example 389, 5-(7-(8-ethynyl-7-fluoro-3-hydroxynaphthalen-1-yl)-8-fluoro-2-(((2R,7aS)-2-fluorohexahydro-1H-pyrrolizin-7a-yl)methoxy)pyrido[4,3-d]pyrimidin-4-yl)tetrahydropyrrolo[3,4-c]pyrrole-1,3(2H,3aH)-dione], the IC50 in experiment [1] and in experiment [2] was at most 2 nM each time.
As to `NS(=O)(=O)CC1CCCN(c2nc(OCC34CCCN3CCC4)nc3c(F)c(-c4cccc5cccc(C(F)F)c45)ncc23)C1` (centres unmarked) [Example 463, 1-(1-(7-(8-(difluoromethyl)naphthalen-1-yl)-8-fluoro-2-((hexahydro-1H-pyrrolizin-7a-yl)methoxy)pyrido[4,3-d]pyrimidin-4-yl)piperidin-3-yl)methanesulfonamide], the IC50 in experiment [1] stood at 1910 nM; in experiment [2], 1680 nM.
The matching figures for `O=C1NCC2(CCCN(c3nc(OCC45CCCN4CCC5)nc4c(F)c(-c5cccc6cccc(Cl)c56)ncc34)C2)N1` (centres unmarked) [Example 284, 7-(7-(8-chloronaphthalen-1-yl)-8-fluoro-2-((hexahydro-1H-pyrrolizin-7a-yl)methoxy)pyrido[4,3-d]pyrimidin-4-yl)-1,3,7-triazaspiro[4.5]decan-2-one]: 54 nM and 50 nM.
Regarding `CCc1c(F)ccc2cc(O)cc(-c3ncc4c(N5CCC[C@@](C)(O)C5)nc(C(=O)NC(C)CN(C)C)nc4c3F)c12` (stereo partly drawn) [Example 312, N-(1-(dimethylamino)propan-2-yl)-7-(8-ethyl-7-fluoro-3-hydroxynaphthalen-1-yl)-8-fluoro-4-((R)-3-hydroxy-3-methylpiperidin-1-yl)pyrido[4,3-d]pyrimidine-2-carboxamide], the IC50 came to 242 nM in experiment [1] and 280 nM in experiment [2].
On the same counts, the results for `C#Cc1c(F)ccc2cc(O)cc(-c3ncc4c(N5CCCC(O)C5)nc(OCCN(C)C)nc4c3F)c12` (centres unmarked) [Example 387, 1-(2-(2-(dimethylamino)ethoxy)-7-(8-ethynyl-7-fluoro-3-hydroxynaphthalen-1-yl)-8-fluoropyrido[4,3-d]pyrimidin-4-yl)piperidin-3-ol] are 130 nM and 153 nM.
On the same counts, the results for `O=C1CC2(CCCN(c3nc(OCC45CCCN4CCC5)nc4c(F)c(-c5cccc6cccc(F)c56)ncc34)C2)C(=O)N1` (centres unmarked) [Example 265, 7-(8-fluoro-7-(8-fluoronaphthalen-1-yl)-2-((hexahydro-1H-pyrrolizin-7a-yl)methoxy)pyrido[4,3-d]pyrimidin-4-yl)-2,7-diazaspiro[4.5]decane-1,3-dione] are 2380 nM and 3190 nM.
